The values below are quoted from earlier work in US20230413823A1, “HYPERLOADED YEAST CELL WALL PARTICLE AND USES THEREOF” (priority 2022, published 2023).

Broadly, the Log P is a log measure of how a compound divides between an organic and an aqueous phase.

Each structure is given as a SMILES string.

The conditions of the series: Table 1; cited from earlier work.

Consider `C=CCc1ccc(O)c(OC)c1` [Eugenol], for which the “Log P” value is listed as 2.3.
